Measurements: PMC10189885, “Transcription activation by the resistance protein AlbA as a tool to evaluate derivatives of the antibiotic albicidin” (Chemical Science, 2023)

The chains behind the UniProt entries cited, without tags or fusion partners.
UniProt P0AES4, whole entry: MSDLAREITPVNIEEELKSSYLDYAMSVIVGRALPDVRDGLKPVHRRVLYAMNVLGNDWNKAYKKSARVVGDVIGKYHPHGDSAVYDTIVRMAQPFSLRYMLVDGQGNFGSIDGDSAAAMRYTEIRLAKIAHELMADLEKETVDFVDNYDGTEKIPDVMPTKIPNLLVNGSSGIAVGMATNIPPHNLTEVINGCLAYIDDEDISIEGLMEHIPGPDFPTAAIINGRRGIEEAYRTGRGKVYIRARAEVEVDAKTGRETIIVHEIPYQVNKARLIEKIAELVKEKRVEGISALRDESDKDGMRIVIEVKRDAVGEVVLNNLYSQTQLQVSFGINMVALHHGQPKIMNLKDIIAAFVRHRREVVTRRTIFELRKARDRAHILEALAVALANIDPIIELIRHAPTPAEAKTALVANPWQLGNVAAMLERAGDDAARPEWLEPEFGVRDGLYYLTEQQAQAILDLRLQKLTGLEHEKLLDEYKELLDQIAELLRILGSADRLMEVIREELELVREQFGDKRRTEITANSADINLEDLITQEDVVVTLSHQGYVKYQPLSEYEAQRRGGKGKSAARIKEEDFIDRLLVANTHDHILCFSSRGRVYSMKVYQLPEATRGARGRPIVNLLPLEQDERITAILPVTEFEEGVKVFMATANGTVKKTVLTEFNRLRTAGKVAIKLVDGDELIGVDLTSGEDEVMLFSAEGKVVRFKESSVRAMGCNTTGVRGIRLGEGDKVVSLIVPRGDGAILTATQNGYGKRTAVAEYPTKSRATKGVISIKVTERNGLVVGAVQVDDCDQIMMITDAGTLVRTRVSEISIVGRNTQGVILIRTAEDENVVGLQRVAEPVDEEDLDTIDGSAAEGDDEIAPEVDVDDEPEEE

Legend:
M. luteus DSM1790 = assay: MIC determination (microdilution); type: cell-based; conditions: Micrococcus luteus, DSM1790, 20 h, read-out: MIC M. Luteus DSM1790
E. coli gyrase = biological target: T1, E. coli gyrase (Escherichia coli, UniProt P0AES4+P0AES6); type: biochemical; design: key: 0, equal to the activity of albicidin; -, lower than the activity of albicidin; +, higher than the activity of albicidin; conditions: 45 nM compound, relative to albicidin, 37 °C, 30 min
T1 construct: purchased Inspiralis Limited, Norwich, UK

E. coli BW25113 = assay: MIC determination (microdilution); type: cell-based; conditions: Escherichia coli, BW25113, 20 h, read-out: MIC E. coli BW25113
Experimental: (§1) E. coli growth inhibition assay
(§2) liquid culture were conducted.
(§3) All assays were set up in triplicates.
(§4) scanner (Epson) with argusX.
(§5) overnight at 37 °C, 200 rpm shaking.
(§6) 95 μL of the inoculum were applied
(§7) Previously, the dry antibiotic compounds were
(§8) The antimicrobial effect of the solvent
(§9) Both microdilution trays and agar plates
(§10) DNA-Gyrase inhibition testing
(§11) The final DMSO concentration was 3%.
(§12) AlbA and its mutants were diluted in […]

E. coli DSM1116 = assay: MIC determination (microdilution); type: cell-based; conditions: Escherichia coli, DSM1116, 20 h, read-out: MIC E. coli DSM1116
Experimental: as §1, §2, §3, §4, §5, §6, §7, §8, §9, §10, §11, §12

M. phlei DSM750 = assay: MIC determination (microdilution); type: cell-based; conditions: Mycolicibacterium phlei, DSM750, 20 h, read-out: MIC M. Phlei DSM750
Experimental: as §1, §2, §3, §4, §5, §6, §7, §8, §9, §10, §11, §12

With `COc1c(NC(=O)c2ccc(NC(=O)c3ccc(NC(=O)[C@H](Cc4c[nH]nn4)NC(=O)c4ccc(C#Cc5ccc(C#N)cc5)cc4)cn3)c(OC)c2O)ccc(C(=O)O)c1O` [Compound 10] as the molecule, how does the MIC (M. luteus DSM1790) read?
The MIC was 0.16 µg/mL (≈ 0.191 µM).

What about the gyrase inhibition (E. coli gyrase) of the same molecule?
Its gyrase inhibition is “+”.

What about the MIC (E. coli BW25113) of the same molecule?
Its MIC is at most 0.016 µg/mL.

What about the MIC (E. coli DSM1116) of the same molecule?
The MIC was at most 0.016 µg/mL.

With `COc1c(NC(=O)c2ccc(NC(=O)c3ccc(NC(=O)[C@H](CC#N)NC(=O)c4ccc(NC(=O)/C(C)=C/c5ccc(O)cc5)cc4)cc3)c(OC)c2O)ccc(C(=O)O)c1O` [Compound 1, albicidin] as the molecule, how does the gyrase inhibition (E. coli gyrase) read?
Its gyrase inhibition is 0.

What about the MIC (M. phlei DSM750) of the same molecule?
Its MIC is 2 µg/mL (≈ 2.37 µM).

≈ marks a conversion by molar mass, not a printed value.
